## Ab-91 heavy chain CDR variants: yeast mating affinities

All variants were tested on one target, the spike HR2 peptide PDVDLGDISGINAS (SARS-CoV-2).

Each scFv is VL, the linker GGGGSGGGGSGGGGS, VH, as in the parent Ab-91, and differs from it in the CDRs of the heavy chain only.
VL: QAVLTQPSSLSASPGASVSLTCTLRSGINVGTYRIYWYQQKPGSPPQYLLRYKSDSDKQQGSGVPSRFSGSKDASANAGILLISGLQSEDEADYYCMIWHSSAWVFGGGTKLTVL
VH: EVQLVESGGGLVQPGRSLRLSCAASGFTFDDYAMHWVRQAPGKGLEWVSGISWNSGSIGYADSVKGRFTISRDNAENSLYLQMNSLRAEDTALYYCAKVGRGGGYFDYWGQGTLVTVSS

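The starting antibody came from a phage panning campaign against this peptide. AAYL51 was designed without a model: most single CDR substitutions and a random sample of double and triple ones. The assay is AlphaSeq: two haploid yeast populations carry antibody and antigen on their surface. The frequency of each diploid, read from paired DNA barcodes, reflects how well the two displayed proteins bind. The ratio of observed to expected reads was calibrated, replicate by replicate, on BCL2-family standards whose Kd was known from biolayer interferometry. Each pool was mated in three replicate cultures.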

Variants are written as CDR1, CDR2 and CDR3 of the heavy chain (limits as in the source). Parent: GFTFDDYAMH, GISWNSGSIGYADSVK, VGRGGGYFDY. Values are apparent Kd, the geometric mean of the replicates that gave a signal; lower means stronger binding. "not detected" means that the variant was in the library but no mating with the target was seen in any replicate; the authors take this as a sign of poor binding, and no number exists.

Kd	detected	CDR-H1	CDR-H2	CDR-H3
not detected	0 of 3	GFTYDDYAMH	FISWNSGSIGYVDSVK	VGRGGGYFDY
20 µM	3 of 3	GFTFDDYAMH	GISWNSAYIGYADSVK	VGRGGGYFDY
930 nM	3 of 3	GFEFDDMAMH	GISWNSGSIGYADMVK	VGRGGGYFDY
120 µM	1 of 3	GFTFDDIAMH	GISWNSGSIGYVDSVK	VGRSGGYFDY
11 µM	1 of 3	HFTFDDYAMH	MISWNSGSIGYADSVA	VGRGGGYFDY
not detected	0 of 3	GFTFDDYAMH	GISWNSGSIGIADSVK	CGHGGGYFDY
78 µM	1 of 3	FFTFDDYAMH	GISWNSGSIGYADSHK	VGRGGVYFDY
3.8 nM	3 of 3	GFTFDDVAMH	GISWDSGSIGYADSVK	VGRGGSYFDY
not detected	0 of 3	GFTQDDYAMH	GISWNSGSIGYADSVK	GGRRGGYFDY
800 µM	3 of 3	GFTFDDYAMH	GISWNSGSIGYADSVK	VVRGTGYFDY
not detected	0 of 3	GFTFGDYDMH	GISWNSGKIGYADSVK	VGRGGGYFDY
12 µM	1 of 3	GFTFDDYAMH	GISWNSGSIGYADSVH	VGRGEGYPDY
45 µM	2 of 3	SCTFDDYAMH	GISWNSGSIGTADSVK	VGRGGGYFDY
80 µM	1 of 3	GFTFDDYAMH	GIWWNSRSISYADSVK	VGRGGGYFDY
120 µM	2 of 3	GFTFDDCAMH	GISTNSGSIGYADSVK	VVRGGGYFDY
2.8 µM	1 of 3	GFTFDDYAMH	GISWNSGSIGYADSCS	VGRGGGYHDY
17 nM	3 of 3	GFTFDDYAMH	GISWNSGSIGYADSVK	VGRGALYFDL
45 µM	2 of 3	GFDFDDEAMH	GISWNSGSIGYADSVK	KGRGGGYFDY
not detected	0 of 3	GFTFDDYAMH	GIMLNSGSIGYADSVK	VGRGGGYFDY
not detected	0 of 3	GFTFDDYAMH	GISWGSGSIGYAMSVK	VGRGGGYFDS
not detected	0 of 3	GFTQDDYAMH	GISWNSGSIGYADSSK	VGRGGGPFDY
not detected	0 of 3	GPTFDDYAMH	GISWNSGSIGYADSVK	VGRQTGYFDY
not detected	0 of 3	GFTFDDYAMH	GIHWRSGSIGYADSVK	VGRGTGYFDY
not detected	0 of 3	GFPFDDYTMH	GISWNSGSIGYADSVK	VGRGGGYFDP
280 µM	3 of 3	GFVFDDYAMH	GISWNSGSIGYADSVK	VKRGTGYFDY
27 µM	1 of 3	GFTFDDMWMH	GISWGSGSIGYADSVK	VGRGGGYFDY
not detected	0 of 3	GFTFDDYAMH	GNSWNSGSIGYADSVK	RGRGGGYFDL
not detected	0 of 3	GFTFDDYAMH	GISWNSGSIGYADSVQ	NGRGHGYFDY
140 µM	2 of 3	GFTFDDYAMK	GISWNSGSIGVADSVK	KGRGGGYFDY
not detected	0 of 3	GFTFDDYAMH	GISWNSDSIGYEDSVK	VGRGGGYFLY
not detected	0 of 3	GFTNDDLAMH	GISWNSGSIGPADSVK	VGRGGGYFDY
24 µM	2 of 3	GFTFDDYAMH	GISRHSGSSGYADSVK	VGRGGGYFDY
17 µM	2 of 3	GFTFDDYAMH	GISWNSGSIYTADSVK	SGRGGGYFDY
not detected	0 of 3	GFTFDSYAMH	GISWNSGSIGYLVSVK	VGRGGGYFDY
98 µM	3 of 3	GFTFDDYAMH	GISWNSGSIGYALSVK	VGVGGGYDDY
69 µM	1 of 3	GFEWDDYACH	GISWNSGSIGYADSVK	VGRGGGYFDY
11 µM	3 of 3	GFTFDDNAMH	GISWMSGSIRYADSVK	VGRGGGYFDY
75 µM	2 of 3	GFTFDDYAMH	GISWNSGSIGYRDSVK	VGRNSGYFDY
not detected	0 of 3	GFTFDDYAMH	GISWNSGSIGKDDSVK	VGRGGGYFDY
64 nM	3 of 3	GFTFADYAMH	GISWNSGSIGYADSVK	VGRGGMYFDY
350 nM	3 of 3	GFTFDDYAMH	GISWNSCSIGYADSVK	VGRGMGYPDY
8.4 µM	2 of 3	GFTFDDYAMH	GISWNSGSIGYADSVK	VGRGDGYFCA
220 µM	2 of 3	GFTGDDYAMH	GISWNNGSIGYADSVK	VGRGFGYFDY
not detected	0 of 3	GFTFDDYAMH	GISWNSGSIGYFDSVW	FGRGGGYFDY
1.2 mM	2 of 3	GFTGDDYAMH	GISWNSGSIGYADNVK	VGRGGGWFDY
not detected	0 of 3	GFTFDDYAMH	GISWNSCSIYYADKVK	VGRGGGYFDY
not detected	0 of 3	GFTFDDYAMH	GISWNSGMIVCADSVK	VGRGGGYFDY

5 of these entries, quoted again:

CDR-H1	CDR-H2	CDR-H3	Kd	detected
GFTFDDVAMH	GISWDSGSIGYADSVK	VGRGGSYFDY	3.8 nM	3 of 3
GFTFDDYAMH	GISWNSGSIGYADSVK	VVRGTGYFDY	800 µM	3 of 3
GFTFDDYAMH	GIMLNSGSIGYADSVK	VGRGGGYFDY	not detected	0 of 3
GFTFDDYAMH	GISWNSCSIYYADKVK	VGRGGGYFDY	not detected	0 of 3
GFTFDDYAMH	GISWGSGSIGYAMSVK	VGRGGGYFDS	not detected	0 of 3

For reference, the parent read 72 nM as the reference entry and 7.5 nM as a member of this library. Background: pairings of library AAYL51 with three empty control strains gave a value in 21% of cases (median 34 µM, 5th percentile 1.8 µM). Values in that range, when seen in few replicates, are hard to tell from nonspecific mating.

Data: MIT Lincoln Laboratory AlphaSeq set, Engelhart et al. 2022, doi:10.1038/s41597-022-01779-4, as distributed in FLAb.